Biological target: T1, CRL2^ZYG11B pentamer complex (ZBCC) (human, UniProt Q9C0D3 1-744; Q15370 1-118; Q15369 17-112; Q13617 1-745; P62877 1-108)
T1 construct: also called E3 holoenzyme; CRL2-ZYG11B complex
Experiment: pull-down; MBP pull-down: about 100 ug MBP fusion protein immobilized on 50 uL amylose resin, prey at 1:1 molar ratio, 1 h at 4 C, eluted with 20 mM maltose, SDS-PAGE and Coomassie
Conditions: both partners purified

| binding result | Binder |
| --- | --- |
| binds | GSERRVLRQL (also called MBP-NLRP1 degron) [Degron-10 MBP fusion protein (GSERRVLRQL at the N terminus of MBP)] |
| binds | GSERRVLRQLPDTSGRRWRE (also called MBP-NLRP1 degron) [Degron-20 MBP fusion protein (GSERRVLRQLPDTSGRRWRE at the N terminus of MBP)] |

Reference: PMC13379236 (Cell reports, 2026)
